The numbers were not newly measured in US9289495B2, “Systems and methods for treatment of allergies and other indications” (Strategic Science & Technologies, LLC, priority 2011, dated 2016), which cites them from elsewhere.

Turning to `CN(C)CCC(c1ccccc1)c1ccccn1` (stereo not shown) [pheniramine], the pKa is 9.3-9.4.
